Data from US12606795B2, “Akkermansia muciniphila and product and application thereof” (Thankcome Biological Science and Technology (SuZhou) Co., …, priority 2023, dated 2026).

Experiments:
[1] = test system: Escherichia coli WP2 uvrA
Protocol: (§1) Bacterial strains used were Salmonella typhimurium TA97a (National Center for Type Culture Collection NTCC, 506391), S. typhimurium TA98 (NTCC, 506392), S. typhimurium TA100 (NTCC, 506395), S. typhimurium TA1535 (NTCC, 506396), and Escherichia coli WP2 uvrA (CHI Scientific, Co., Ltd., product number: 6-1705). To prepare a drug delivery formulation, distilled water was used as a carrier to prepare a suspension (100 mg/mL) for a test item. […] Therefore, bacteria in samples for the test item were removed by a mechanical means. In the process of mixing the formulation, any soluble components for the test item was dissolved in the carrier, and then, residual bacteria were removed by centrifugation (4° C.; 8000 rpm; 10 min). After centrifugation, liquid supernatant was removed and sterile filtration was performed with a 0.22 μm filter.
(§2) In the confirmatory mutation research, detection was performed at 15.81, 50, 158.1, 500, 1581, and 5000 μg/plate. The maximum concentration was recommended by current regulations and guidelines. […] The survival rate of test bacterial cells was checked through plate experiments in each test. If there is a dosage-related increase in the number of revertants, it is considered that the test item has mutagenicity, and/or a reproducible biology-related positive reaction targeting at least one dosage group occurs in at least one strain with or without metabolic activation.

S. typhimurium TA100 = conditions: TA100 +S9
Protocol: as §1, §2

S. typhimurium TA1535 = test system: S. typhimurium TA1535
Protocol: as §1, §2

S. typhimurium TA98 = test system: S. typhimurium TA98
Protocol: as §1, §2

[2] = test system: Salmonella typhimurium TA97a, TA98, TA100, TA1535 and Escherichia coli WP2 uvrA; conditions: bacteria-free filtered supernatant of the test item, up to 5000 μg/plate, with or without S9
Protocol: as §1, §2

[3] = test system: Salmonella typhimurium TA97a
Protocol: as §1, §2

Akkermansia muciniphila [AKK PROBIO]
Number of revertant mutants per plate (mean ± standard deviation) ([1]; Escherichia coli WP2A uvr +S9): 130.80 | Number of revertant mutants per plate (mean ± standard deviation) ([1]; Escherichia coli WP2A uvr −S9): 113.60 | Number of revertant mutants per plate (mean ± standard deviation) (S. typhimurium TA100): 52.00 | Number of revertant mutants per plate (mean ± standard deviation) (S. typhimurium TA1535; TA1535 +S9): 12.40 | Number of revertant mutants per plate (mean ± standard deviation) (S. typhimurium TA1535; TA1535 −S9): 10.00 | Number of revertant mutants per plate (mean ± standard deviation) (S. typhimurium TA98; TA98 +S9): 31.60 | Number of revertant mutants per plate (mean ± standard deviation) (S. typhimurium TA98; TA98 −S9): 36.80 | mutagenicity [2]: no mutagenicity | Number of revertant mutants per plate (mean ± standard deviation) ([3]; TA97a +S9): 101.80 | Number of revertant mutants per plate (mean ± standard deviation) ([3]; TA97a −S9): 98.20

Read-outs that look alike come from different tables or passages of the source.
